Three molecules from ChEMBL document CHEMBL1134302, “Cheminformatic models to predict binding affinities to human serum albumin” (J Med Chem, 2001) can be followed below.

By UniProt entry, the sequences of proteins in these tests, tags left out.
UniProt P02768, whole entry: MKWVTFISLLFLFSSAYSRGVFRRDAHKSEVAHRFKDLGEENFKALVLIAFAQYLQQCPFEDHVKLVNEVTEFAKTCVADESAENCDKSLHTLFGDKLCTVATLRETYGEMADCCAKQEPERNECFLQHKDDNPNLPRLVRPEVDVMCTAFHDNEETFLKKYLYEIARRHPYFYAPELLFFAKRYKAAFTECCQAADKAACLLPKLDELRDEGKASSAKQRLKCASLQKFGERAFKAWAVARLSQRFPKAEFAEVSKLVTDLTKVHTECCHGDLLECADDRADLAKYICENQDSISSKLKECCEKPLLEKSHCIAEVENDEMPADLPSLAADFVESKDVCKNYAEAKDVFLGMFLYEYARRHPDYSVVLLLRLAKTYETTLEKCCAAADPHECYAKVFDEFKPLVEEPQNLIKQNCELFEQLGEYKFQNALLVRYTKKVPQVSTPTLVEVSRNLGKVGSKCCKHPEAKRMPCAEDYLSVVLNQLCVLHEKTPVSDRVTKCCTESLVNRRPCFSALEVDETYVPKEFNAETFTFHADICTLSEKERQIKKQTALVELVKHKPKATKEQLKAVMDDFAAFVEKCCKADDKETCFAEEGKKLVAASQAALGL

The target in this series is Albumin (Homo sapiens, UniProt P02768). Kind of series: Binding constant against human serum albumin (HSA).
On to `CN(C)CCCN1c2ccccc2Sc2ccc(Cl)cc21` [CHLORPROMAZINE], for which the “Log K'” value worked out at 1.1.
With `NC(=O)N1c2ccccc2C=Cc2ccccc21` [CARBAMAZEPINE] the figure was 0.1; with `O=C1NC(=O)C(c2ccccc2)(c2ccccc2)N1` [PHENYTOIN], 0.
